# Data: patent US5085739A, “Separation of the propyl alcohols from water by azeotropic or extractive distillation” (priority 1991, dated 1992)
# Test: vapor-liquid equilibrium still, n-propanol-water azeotrope with agent
# Details: n-propanol from water, extractive distn., water as overhead
substance,measurement,value
Dipropylene glycol methyl ether,Relative Volatility,1.43
